Test results as given in PubChem BioAssay (NCI).
Values joined by “and” are separate entries in the source; they are usually repeats but may differ in a detail not shown here. Equal values may be shown once. The list shows a part of the results, in another mix than the full data. Some results for these compounds are left out of this collection, so the calls shown say nothing about other tests.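 For each line, cells grew in 96-well plates with the test compound present at a single concentration for 48 hours.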 Active and inactive are the calls of the source. How the source made its calls: active means growth percent below 10; inactive means the rest.

System: OVCAR-4 ovarian
Assay: NCI-60 one-dose screen, 48 h (100 = growth as untreated, 0 = no growth, -100 = all killed)
Conditions: 10 µM

SMILES	growth
ClCCN(CCCl)Cc1cc(Cl)cc(Cl)c1	inactive: 88.3%
N#CC(C#N)=Cc1ccccc1Cl	inactive: 109%
ClCCN(CCCl)Cc1ccsc1Br	inactive: 100%
N#CC(C#N)=Cc1cccc(Br)c1	inactive: 102%
Fc1cccc(CN(CCCl)CCCl)c1	inactive: 104%
Cc1cc2nc(CN(CCCl)CCCl)[nH]c2cc1C	inactive: 98.2%
ClCCN(CCCl)C1c2ccccc2-c2ccccc21	inactive: 95.3%
CC(C)(C)N(CCCl)CCCl	inactive: 94.6%
N#CC(C#N)=Cc1ccc(Br)cc1	inactive: 112% and inactive: 107%
CCOc1ccc([N+](=O)[O-])cc1CN(CCCl)CCCl	inactive: 107%
CN(C)CCOC(=O)C(O)(c1ccccc1)c1ccccc1	inactive: 112%
ClCCN(CCCl)Cc1ccc(Cl)c(Cl)c1	inactive: 103%
CC(=O)CI	inactive: 101%
CCCN(CCCl)CCCl	inactive: 109%
BrCCN(CCBr)Cc1ccccc1	inactive: 96.9%
CCNCCCl	inactive: 106%
O=C(OCCN1CCCC1)C(O)(c1ccccc1)c1ccccc1	inactive: 111%
COc1ccc(N=C=S)cc1CN(CCCl)CCCl	inactive: 96%
ClCCN(CCCl)C1CCCCC1	inactive: 101%
CC[N+](C)(C)Cc1cccc(Cc2ccccc2)c1OC(=O)N(C)C	inactive: 108%
COc1ccc([N+](=O)[O-])cc1CN(CCCl)CCCl	inactive: 97.6%
ClCCCCCC(CCl)NCCCl (centres undefined)	inactive: 96.8%
COCc1c(CN(CCCl)CCCl)cnc(C)c1O	inactive: 106%
CN(CCBr)CCBr	inactive: 89.2%

System: SK-OV-3 ovarian
Assay: as above
Conditions: 10 µM

SMILES	growth
ClCCN(CCCl)Cc1cc(Cl)cc(Cl)c1	inactive: 65.3%
N#CC(C#N)=Cc1ccccc1Cl	inactive: 91.5%
ClCCN(CCCl)Cc1ccsc1Br	inactive: 96.8%
N#CC(C#N)=Cc1cccc(Br)c1	inactive: 104%
Fc1cccc(CN(CCCl)CCCl)c1	inactive: 97.5%
Cc1cc2nc(CN(CCCl)CCCl)[nH]c2cc1C	inactive: 87.5%
ClCCN(CCCl)C1c2ccccc2-c2ccccc21	inactive: 88.3%
CC(C)(C)N(CCCl)CCCl	inactive: 109%
N#CC(C#N)=Cc1ccc(Br)cc1	inactive: 108% and inactive: 115%
CCOc1ccc([N+](=O)[O-])cc1CN(CCCl)CCCl	inactive: 108%
CN(C)CCOC(=O)C(O)(c1ccccc1)c1ccccc1	inactive: 119%
ClCCN(CCCl)Cc1ccc(Cl)c(Cl)c1	inactive: 115%
CC(=O)CI	inactive: 121%
CCCN(CCCl)CCCl	inactive: 111%
BrCCN(CCBr)Cc1ccccc1	inactive: 114%
CCNCCCl	inactive: 111%
O=C(OCCN1CCCC1)C(O)(c1ccccc1)c1ccccc1	inactive: 96.7%
COc1ccc(N=C=S)cc1CN(CCCl)CCCl	inactive: 65.6%
ClCCN(CCCl)C1CCCCC1	inactive: 107%
CC[N+](C)(C)Cc1cccc(Cc2ccccc2)c1OC(=O)N(C)C	inactive: 128%
COc1ccc([N+](=O)[O-])cc1CN(CCCl)CCCl	inactive: 113%
ClCCCCCC(CCl)NCCCl (centres undefined)	inactive: 105%
COCc1c(CN(CCCl)CCCl)cnc(C)c1O	inactive: 108%
CN(CCBr)CCBr	inactive: 115%

System: IGROV1 ovarian
Assay: as above
Conditions: 10 µM

SMILES	growth
ClCCN(CCCl)Cc1cc(Cl)cc(Cl)c1	inactive: 66%
ClCCN(CCCl)Cc1ccsc1Br	inactive: 58.6%
N#CC(C#N)=Cc1cccc(Br)c1	inactive: 113%
Fc1cccc(CN(CCCl)CCCl)c1	inactive: 76.4%
ClCCN(CCCl)C1c2ccccc2-c2ccccc21	inactive: 73.3%
CC(C)(C)N(CCCl)CCCl	inactive: 112%
N#CC(C#N)=Cc1ccc(Br)cc1	inactive: 115%
CCOc1ccc([N+](=O)[O-])cc1CN(CCCl)CCCl	inactive: 90.3%
CN(C)CCOC(=O)C(O)(c1ccccc1)c1ccccc1	inactive: 85.8%
ClCCN(CCCl)Cc1ccc(Cl)c(Cl)c1	inactive: 98.4%
CC(=O)CI	inactive: 104%
CCCN(CCCl)CCCl	inactive: 92.7%
BrCCN(CCBr)Cc1ccccc1	inactive: 116%
CCNCCCl	inactive: 122%
COc1ccc(N=C=S)cc1CN(CCCl)CCCl	inactive: 77.2%
ClCCN(CCCl)C1CCCCC1	inactive: 88.6%
CC[N+](C)(C)Cc1cccc(Cc2ccccc2)c1OC(=O)N(C)C	inactive: 95.4%
COc1ccc([N+](=O)[O-])cc1CN(CCCl)CCCl	inactive: 82.8%
ClCCCCCC(CCl)NCCCl (centres undefined)	inactive: 90.7%
COCc1c(CN(CCCl)CCCl)cnc(C)c1O	inactive: 95.8%
CN(CCBr)CCBr	inactive: 79.2%
